Measured values reported in patent US20240131004A1, “FUNCTIONALIZED 1,3-BENZENE DIOLS AND THEIR METHOD OF USE FOR THE TREATMENT OF INFLAMMATION AND PAIN” (KANNALIFE SCIENCES, INC., priority 2021, published 2024).

Test system: hippocampal cultures
Assay: Alamar Blue cellular viability in hippocampal cultures, reversal of LPIA toxicity
Type: cell-based, rat
Conditions: 1 nM LPIA
From the text: Because the scope of the anti-inflammatory actions of the 1,3-benzene diols included the central nervous system as well, hippocampal cultures were also employed as they express both mNCX-1 and GPR55, the two targets that mediate protection and inflammation, respectively. […] Poly-L-lysine-coated plates (BD Biosciences, Franklin Lakes, NJ) were used because of the preferential adherence and survival of neurons on this matrix support.
At the conclusion of each experiment, sister cultures to those assessed by image analysis were evaluated with either a fluorescent dye-based assays for neuronal viability (6-carboxyfluorescein diacetate, CFDA) or with viability dye Alamar Blue. The preferred dye was Alamar Blue as this assay of viability could be conducted and then the dye washed off the cultures for subsequent fixation and follow-up immunocytochemical assays. […] In addition, a portion of the reductive conversion of resazurin to the highly fluorescent resorufin in the Alamar Blue reagent is attributable to the action of mitochondrial reductases. Because of the need for enhanced sensitivity, the Alamar Blue assay was predominantly used for these studies. […]
On every plate, wells without cells were used to provide a blank reading that was used to subtract background fluorescence. […] Fluorescence was measured at an excitation of 530 nm and an emission of 590 on a Cytofluor plate reader. […]

lysophosphatidylinositol arachidonate [LPIA]
Effect of LPIA on cellular viability of hippocampal cultures: toxicity
